# Experimental data taken from patent US20220133727A1, “COMBINATION THERAPIES FOR USE IN TREATING CANCER” (Les Laboratoires Servier SAS, priority 2019, published 2022).
# Test system: ESX030 human primary esophageal cancer xenograft
# Conditions: Group 4, 5.0 mg/kg Docetaxel alone, day 38
compound,measurement,value
CC(=O)O[C@@]12CO[C@@H]1C[C@H](O)[C@@]1(C)C(=O)[C@H](O)C3=C(C)[C@@H](OC(=O)[C@H](O)[C@@H](NC(=O)OC(C)(C)C)c4ccccc4)C[C@@](O)([C@@H](OC(=O)c4ccccc4)[C@H]21)C3(C)C [Docetaxel],"Tumor volume, median",1310 mm^3
